# AlphaSeq binding of Ab-95 light chain variants to a spike HR2 peptide

From the AlphaSeq antibody data of Engelhart et al. 2022 (doi:10.1038/s41597-022-01779-4), copy in the FLAb collection.

Target peptide (SARS-CoV-2 spike, HR2 region): PDVDLGDISGINAS

Each scFv is VH, a (GGGGS)3 linker, VL, as in the parent Ab-95, and differs from it in the CDRs of the light chain only.
VH: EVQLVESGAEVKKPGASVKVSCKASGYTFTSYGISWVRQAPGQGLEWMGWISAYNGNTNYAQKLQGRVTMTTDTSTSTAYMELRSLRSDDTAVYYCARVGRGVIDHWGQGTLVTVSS
VL: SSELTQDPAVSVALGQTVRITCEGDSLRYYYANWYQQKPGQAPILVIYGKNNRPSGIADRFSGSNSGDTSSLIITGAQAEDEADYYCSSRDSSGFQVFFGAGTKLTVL

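AAYL52 was designed without a model: most single CDR substitutions and a random sample of double and triple ones. In AlphaSeq, yeast of one mating type display the scFv and yeast of the other type display the target. Pairs that bind mate more often; barcode pairs of the diploids are counted by sequencing. Each replicate has its own calibration line, from reference interactions of the BCL2 family. There are three technical replicates.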

Variants are written as CDR1, CDR2 and CDR3 of the light chain (limits as in the source). Parent: EGDSLRYYYAN, GKNNRPS, SSRDSSGFQVF. Affinities are written as log10 Kd with Kd in nM; a lower number is a better binder. A mean of the replicates is given; it leaves out those without a signal. "nd" means that the variant was in the library but no mating with the target was seen in any replicate; the authors take this as a sign of poor binding, and no number exists. Nonspecific signal, from three strains lacking the peptide, appeared in 28% of pairings of library AAYL52, centred on 3.91 (5% of these signals below 2.90); values are not corrected for it. Parent in this assay: reference entry 2.31, copy in this library 2.25.

| mean log10 Kd (nM) | detected | CDR-L1 | CDR-L2 | CDR-L3 |
|---|---|---|---|---|
| nd | 0 of 3 | EGDSLRYYYAL | GKNNRPS | SGRDSSGFIVF |
| 2.52 | 3 of 3 | EGDSLRYECAN | GKNNLPS | SSRDSSGFQVF |
| 2.02 | 3 of 3 | EGDSLRYYYAN | GKNNRPD | SSRDSSGWQVL |
| 2.83 | 3 of 3 | EGDSLRYYWAN | GMNNRPS | SSRDSSGFQQF |
| 4.37 | 2 of 3 | EGDSERYYYAN | DKNNRPS | ISRDSSGFQVF |
| 4.66 | 2 of 3 | EWRSLRYYYAN | GKNNRPS | SVRDSSGFQVF |
| 2.61 | 3 of 3 | EGDTLRYYYAN | GNNNRPS | SSRDSSGFQVF |
| 4.86 | 1 of 3 | EGDSLRYYYAL | GKNNRPS | SSRDSSGFQWC |
| nd | 0 of 3 | EGDSQRYYYAN | VKNNRQS | SSRDSSGFQVF |
| 3.91 | 2 of 3 | EGDSLRYYYAN | EKNNRPS | SSPDSSGFQVF |
| 4.56 | 2 of 3 | EGDSLRYYYAN | GLNNRPS | ISRDSSGFQVR |
| 3.31 | 2 of 3 | EGDSLRYYYVN | GKNTRPS | SSRDSSGIQVF |
| 2.17 | 3 of 3 | EGDSIRYYFAD | GKNNRPS | SSRDSSGFQVF |
| nd | 0 of 3 | EGDSLRYYYQN | DKNNRPS | SSRDSSGFQVF |
| 3.92 | 3 of 3 | EGDSLRWYYIN | GKNNRPS | SSLDSSGFQVF |
| 4.32 | 2 of 3 | EGDSLRYYKTN | GKNNRPS | DSRDSSGFQVF |
| nd | 0 of 3 | EGDSLAYYYAD | GKNNRPS | ESRDSSGFQVF |
| 4.16 | 2 of 3 | EGDNLRYYYAN | GKNNRPS | SSRDMSGFQFF |
| 3.26 | 3 of 3 | EGDSLRYYYAN | GKNNRFE | SIRDSSGFQVF |
| 3.90 | 2 of 3 | EGDSLRYYYAN | GKNNRRS | SSRDSSGFQVL |
| 3.48 | 1 of 3 | GGFSLRYYYAN | GKNIRPS | SSRDSSGFQVF |
| 3.64 | 2 of 3 | EGWSLRYYYAN | FKNNRPN | SSRDSSGFQVF |
| 4.38 | 1 of 3 | EYDSLRYYYAN | VKNNRPS | SSRDVSGFQVF |
| 3.32 | 1 of 3 | EGDSLRYYYAN | DKNNRPS | SMRDSVGFQVF |
| 2.53 | 3 of 3 | RGDSMRYYYAN | GKNNRPS | SSRDSSGFQVF |
| nd | 0 of 3 | EGDSLRYYYSN | GKNNRPS | SNRDSSGFQIF |
| 4.48 | 1 of 3 | EGDSLRYYYDN | GKNNRPP | SSRDESGFQVF |
| 2.02 | 3 of 3 | RGDSLRYWYAN | GKNNRMS | SSRDSSGFQVF |
| 3.80 | 2 of 3 | EGDSLFYYYAM | GKVNRPS | SSRDSSGFQVF |
| nd | 0 of 3 | EGDSLRRYYAN | GKNNRPS | SSRDYSGGQVF |
| 3.99 | 1 of 3 | EGDSVRYYYAN | GKNNYPS | SSRDSSGFQVI |
| 5.03 | 1 of 3 | EGDSLRYYYAN | GVPSRPS | SSRDSSGFQVF |
| 5.43 | 1 of 3 | EGDSLRYYYAN | GKNNRPS | SSRDTSGFQNF |
| 3.85 | 3 of 3 | EGDRMRYYYAN | TKNNRPS | SSRDSSGFQVF |
| 3.42 | 3 of 3 | EGDSLRRDYAN | GKNNRPS | SSRDSSFFQVF |
| 3.45 | 1 of 3 | EGDSLRYYYAN | TKNNRPS | SLRDSSGFCVF |
| 3.44 | 1 of 3 | EGDSLWYYYAN | DKNNRPS | SSRDSSTFQVF |
| 3.30 | 3 of 3 | EGDSLRYYYAN | GKNNRPS | SSRDIGGFSVF |
| 3.12 | 2 of 3 | EGDSLRYYYAI | VKTNRPS | SSRDSSGFQVF |
| 3.81 | 1 of 3 | EGTSLRYYYAI | GKNNRPS | SSRDSSGFQVY |
| 4.11 | 3 of 3 | AGDSLRYYYAN | GKNWRPS | SSEDSSGFQVF |
| 1.46 | 3 of 3 | EGDSLRYNYAN | GKNSRPS | SSRDSSGLQVF |
| 2.01 | 3 of 3 | EGPSDRYYYAN | GKNNRPS | SSRDSVGFQVF |
| 2.86 | 3 of 3 | EGDRLRYYYAN | NKNNRPS | SSRDSSGQQVF |
| 4.27 | 2 of 3 | EHDCLRYYYAN | GKNNRFS | SSRDSSGFQVF |
| nd | 0 of 3 | EGDSLRYYLHN | GKNNRQS | SSRDSSGFQVF |
| 4.43 | 2 of 3 | EGDSHRSYYDN | GKNNRPS | SSRDSSGFQVF |
| 4.07 | 3 of 3 | EGDSLRYWYAN | GKNNRPS | SSRDSSGRVVF |
| 3.66 | 3 of 3 | EGDSLRYYYAN | GKHNYPS | SSRDSSGSQVF |
| 5.56 | 1 of 3 | EGDSLRYTNAN | GKNNRPS | SSIDSSGFQVF |
| 1.96 | 3 of 3 | EKDSLRYWYAN | GKNNTPS | SSRDSSGFQVF |
| 3.30 | 2 of 3 | ESDSLRYYRAN | GKNNRPS | SSRDSSGFFVF |
| 2.97 | 3 of 3 | EGDSVRYYYHN | GKNNRPS | SSRDSSAFQVF |
| 2.46 | 3 of 3 | EGDSLRYCYAN | GKNNRPS | SSRDKDGFQVF |
| 2.32 | 3 of 3 | EGDSLRYYYAN | GKNIRPS | SSRDSQGFQVF |
| 2.69 | 3 of 3 | EGDSLSYYYAN | GKYTRPS | SSRDSSGFQVF |
| 2.23 | 3 of 3 | EGDSGRPYYAN | GKNNRPS | SSRDSSGFQVF |
| 5.87 | 1 of 3 | EGDSLRYYYAY | GKNNRPS | SSRVSSGFQKF |
| 2.78 | 3 of 3 | EGDSLRYWHAN | GKNNRPR | SSRDSSGFQVF |
| 2.88 | 3 of 3 | EGDSLRYYYAN | GKNNRRS | SSRDSSKFQVF |
| 1.79 | 3 of 3 | EGDSLRYAYAN | GKNNVPS | SSRDSSGQQVF |
| 5.14 | 1 of 3 | EGDSLRTYYAN | LKNNRPS | SSRVSSGFQVF |
| nd | 0 of 3 | EGNLLRYYYAN | GKNNRPS | SSRDSSGFQVF |
| 2.82 | 2 of 3 | IGDSQRYYYAN | GKNNRPS | SSRDSSGFQVF |
| 2.54 | 3 of 3 | EGDSLRYYYYN | GNNNRPC | SSRDSSGFQVF |
| 4.45 | 2 of 3 | GGISLRYYYAN | GKENRPS | SSRDSSGFQVF |
| 2.02 | 3 of 3 | EGDSLRYYDRN | GKNNRPS | SSRDSSGRQVF |
| 4.27 | 1 of 3 | EGDSLRYYYAN | VKNVRQS | SSRDSSGFQVF |
| 1.19 | 3 of 3 | EGDSLRYTYAN | GKNNRPS | SSRDSSGFQVA |
| 2.51 | 3 of 3 | EGDSLRYYYAN | KKNNRPS | SGRDSEGFQVF |
| 4.23 | 2 of 3 | ESDSLRYYYAN | GKVVRPS | SSRDSSGFQVF |
| 2.48 | 3 of 3 | EGDSLRYYYAN | GKNNRPS | HSPDKSGFQVF |
| nd | 0 of 3 | EGDSYRYYYAN | GCNNNPS | SSRDSSGFQVF |
| 3.94 | 2 of 3 | EMDSLRYYYAN | GKNDRTS | SSRDSSGFQVF |
| nd | 0 of 3 | EGDSLRYYYAN | GKNNRKS | STRDGSGFQVF |
| 4.58 | 3 of 3 | EGWSLRYYYAN | GKNNRPN | SSRDSSGFQVI |
| 3.16 | 2 of 3 | EDDSLPYYYAN | GKNNRPS | SSRDSSGYQVF |

The closing 10 entries, repeated:

{"CDR-L1": "EGDSLRYYYAN", "CDR-L2": "VKNVRQS", "CDR-L3": "SSRDSSGFQVF", "mean log10 Kd (nM)": "4.27", "detected": "1 of 3"}
{"CDR-L1": "EGDSLRYTYAN", "CDR-L2": "GKNNRPS", "CDR-L3": "SSRDSSGFQVA", "mean log10 Kd (nM)": "1.19", "detected": "3 of 3"}
{"CDR-L1": "EGDSLRYYYAN", "CDR-L2": "KKNNRPS", "CDR-L3": "SGRDSEGFQVF", "mean log10 Kd (nM)": "2.51", "detected": "3 of 3"}
{"CDR-L1": "ESDSLRYYYAN", "CDR-L2": "GKVVRPS", "CDR-L3": "SSRDSSGFQVF", "mean log10 Kd (nM)": "4.23", "detected": "2 of 3"}
{"CDR-L1": "EGDSLRYYYAN", "CDR-L2": "GKNNRPS", "CDR-L3": "HSPDKSGFQVF", "mean log10 Kd (nM)": "2.48", "detected": "3 of 3"}
{"CDR-L1": "EGDSYRYYYAN", "CDR-L2": "GCNNNPS", "CDR-L3": "SSRDSSGFQVF", "mean log10 Kd (nM)": "nd", "detected": "0 of 3"}
{"CDR-L1": "EMDSLRYYYAN", "CDR-L2": "GKNDRTS", "CDR-L3": "SSRDSSGFQVF", "mean log10 Kd (nM)": "3.94", "detected": "2 of 3"}
{"CDR-L1": "EGDSLRYYYAN", "CDR-L2": "GKNNRKS", "CDR-L3": "STRDGSGFQVF", "mean log10 Kd (nM)": "nd", "detected": "0 of 3"}
{"CDR-L1": "EGWSLRYYYAN", "CDR-L2": "GKNNRPN", "CDR-L3": "SSRDSSGFQVI", "mean log10 Kd (nM)": "4.58", "detected": "3 of 3"}
{"CDR-L1": "EDDSLPYYYAN", "CDR-L2": "GKNNRPS", "CDR-L3": "SSRDSSGYQVF", "mean log10 Kd (nM)": "3.16", "detected": "2 of 3"}